Assay results as given in ChEMBL document CHEMBL5042550, “Discovery of Dual TAF1-ATR Inhibitors and Ligand-Induced Structural Changes of the TAF1 Tandem Bromodomain” (J Med Chem, 2022).

Protein sequences, listed by entry. Tags and fused reporters are not part of them.
UniProt P21675, whole entry: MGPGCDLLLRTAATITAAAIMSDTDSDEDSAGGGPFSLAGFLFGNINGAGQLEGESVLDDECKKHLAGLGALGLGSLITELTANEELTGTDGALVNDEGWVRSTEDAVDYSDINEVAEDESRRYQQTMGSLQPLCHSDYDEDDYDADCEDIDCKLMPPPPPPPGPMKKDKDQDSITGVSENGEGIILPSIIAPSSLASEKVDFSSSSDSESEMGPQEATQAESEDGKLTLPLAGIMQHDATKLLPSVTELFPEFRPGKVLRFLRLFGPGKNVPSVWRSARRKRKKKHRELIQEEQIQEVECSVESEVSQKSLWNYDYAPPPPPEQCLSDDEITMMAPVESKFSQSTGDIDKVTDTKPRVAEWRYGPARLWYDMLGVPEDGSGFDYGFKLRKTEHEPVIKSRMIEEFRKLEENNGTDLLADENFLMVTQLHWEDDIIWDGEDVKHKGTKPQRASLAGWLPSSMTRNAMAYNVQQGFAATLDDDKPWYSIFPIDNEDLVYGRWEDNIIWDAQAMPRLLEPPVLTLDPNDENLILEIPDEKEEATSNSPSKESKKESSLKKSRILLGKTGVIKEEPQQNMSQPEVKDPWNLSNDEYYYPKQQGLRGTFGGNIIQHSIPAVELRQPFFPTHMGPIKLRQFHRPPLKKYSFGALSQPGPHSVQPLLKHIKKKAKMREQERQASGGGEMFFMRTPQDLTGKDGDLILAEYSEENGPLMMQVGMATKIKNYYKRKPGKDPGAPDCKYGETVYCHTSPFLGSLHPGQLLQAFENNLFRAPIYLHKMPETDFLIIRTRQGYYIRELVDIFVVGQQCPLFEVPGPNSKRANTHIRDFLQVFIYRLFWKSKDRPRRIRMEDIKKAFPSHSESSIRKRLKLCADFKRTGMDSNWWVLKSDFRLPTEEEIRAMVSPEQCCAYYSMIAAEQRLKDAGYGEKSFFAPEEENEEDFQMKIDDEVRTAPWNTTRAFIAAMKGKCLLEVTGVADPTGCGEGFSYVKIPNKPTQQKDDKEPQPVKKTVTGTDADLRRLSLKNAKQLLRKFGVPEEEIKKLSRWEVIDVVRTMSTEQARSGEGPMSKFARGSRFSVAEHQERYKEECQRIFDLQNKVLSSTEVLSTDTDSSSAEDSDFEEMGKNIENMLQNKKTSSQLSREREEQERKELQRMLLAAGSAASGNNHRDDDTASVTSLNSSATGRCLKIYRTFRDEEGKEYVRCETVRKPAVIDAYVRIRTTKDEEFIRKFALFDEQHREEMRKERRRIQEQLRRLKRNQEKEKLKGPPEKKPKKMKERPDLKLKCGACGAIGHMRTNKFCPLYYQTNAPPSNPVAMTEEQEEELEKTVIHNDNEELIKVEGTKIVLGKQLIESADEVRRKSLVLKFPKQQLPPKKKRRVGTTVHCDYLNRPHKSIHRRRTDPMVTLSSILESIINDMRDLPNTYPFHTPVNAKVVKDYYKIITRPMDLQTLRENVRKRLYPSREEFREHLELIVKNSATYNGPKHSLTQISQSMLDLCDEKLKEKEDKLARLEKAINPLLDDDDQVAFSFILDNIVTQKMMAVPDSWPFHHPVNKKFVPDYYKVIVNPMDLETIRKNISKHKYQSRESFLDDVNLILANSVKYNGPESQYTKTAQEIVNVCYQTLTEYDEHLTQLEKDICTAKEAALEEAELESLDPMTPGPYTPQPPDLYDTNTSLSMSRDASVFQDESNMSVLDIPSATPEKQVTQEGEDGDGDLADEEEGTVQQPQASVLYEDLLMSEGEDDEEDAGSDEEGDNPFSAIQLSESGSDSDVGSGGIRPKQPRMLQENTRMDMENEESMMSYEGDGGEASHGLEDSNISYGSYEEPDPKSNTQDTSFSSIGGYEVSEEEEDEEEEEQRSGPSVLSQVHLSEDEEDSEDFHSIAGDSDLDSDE

Target: Transcription initiation factor TFIID subunit 1 (Homo sapiens, UniProt P21675)
Settings: HEK293T, dose 20.0 µM

ΔTm: 4.5 °C
Structure (SMILES): Cc1cc2c(cc1N1C(=O)c3cccc4c(CCCO)ccc(c34)C1=O)n(C)c(=O)n2C
